Results on one compound are retold here after patent EP0930314A1, “p-TOLUENESULFONATE HYDRATE OF THIAZOLINE COMPOUND” (TAISHO PHARMACEUTICAL CO. LTD, priority 1996, dated 1998).

Chains of the proteins cited; added tags and fusions are not shown. Residues count along the entry.
UniProt P05106, 27-788: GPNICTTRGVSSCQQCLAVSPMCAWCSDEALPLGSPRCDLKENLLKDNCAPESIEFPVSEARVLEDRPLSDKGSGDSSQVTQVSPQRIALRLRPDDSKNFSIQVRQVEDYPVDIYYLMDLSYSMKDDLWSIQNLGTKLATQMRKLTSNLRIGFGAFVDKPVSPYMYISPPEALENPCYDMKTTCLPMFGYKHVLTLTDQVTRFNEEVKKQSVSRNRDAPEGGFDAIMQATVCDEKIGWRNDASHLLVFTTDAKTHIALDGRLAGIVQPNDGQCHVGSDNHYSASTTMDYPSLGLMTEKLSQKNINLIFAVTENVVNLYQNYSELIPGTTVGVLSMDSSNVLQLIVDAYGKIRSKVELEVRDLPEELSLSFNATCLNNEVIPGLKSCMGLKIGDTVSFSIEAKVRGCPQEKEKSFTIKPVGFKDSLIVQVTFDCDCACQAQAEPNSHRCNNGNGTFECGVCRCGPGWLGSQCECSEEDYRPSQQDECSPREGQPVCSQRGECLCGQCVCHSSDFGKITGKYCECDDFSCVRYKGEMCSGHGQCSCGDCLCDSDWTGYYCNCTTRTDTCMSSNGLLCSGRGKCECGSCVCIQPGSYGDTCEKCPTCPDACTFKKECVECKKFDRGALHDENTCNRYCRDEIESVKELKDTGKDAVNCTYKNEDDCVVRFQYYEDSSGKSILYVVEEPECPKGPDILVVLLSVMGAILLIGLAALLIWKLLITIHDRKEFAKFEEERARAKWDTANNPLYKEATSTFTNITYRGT
UniProt P08514, 32-887 limits assumed: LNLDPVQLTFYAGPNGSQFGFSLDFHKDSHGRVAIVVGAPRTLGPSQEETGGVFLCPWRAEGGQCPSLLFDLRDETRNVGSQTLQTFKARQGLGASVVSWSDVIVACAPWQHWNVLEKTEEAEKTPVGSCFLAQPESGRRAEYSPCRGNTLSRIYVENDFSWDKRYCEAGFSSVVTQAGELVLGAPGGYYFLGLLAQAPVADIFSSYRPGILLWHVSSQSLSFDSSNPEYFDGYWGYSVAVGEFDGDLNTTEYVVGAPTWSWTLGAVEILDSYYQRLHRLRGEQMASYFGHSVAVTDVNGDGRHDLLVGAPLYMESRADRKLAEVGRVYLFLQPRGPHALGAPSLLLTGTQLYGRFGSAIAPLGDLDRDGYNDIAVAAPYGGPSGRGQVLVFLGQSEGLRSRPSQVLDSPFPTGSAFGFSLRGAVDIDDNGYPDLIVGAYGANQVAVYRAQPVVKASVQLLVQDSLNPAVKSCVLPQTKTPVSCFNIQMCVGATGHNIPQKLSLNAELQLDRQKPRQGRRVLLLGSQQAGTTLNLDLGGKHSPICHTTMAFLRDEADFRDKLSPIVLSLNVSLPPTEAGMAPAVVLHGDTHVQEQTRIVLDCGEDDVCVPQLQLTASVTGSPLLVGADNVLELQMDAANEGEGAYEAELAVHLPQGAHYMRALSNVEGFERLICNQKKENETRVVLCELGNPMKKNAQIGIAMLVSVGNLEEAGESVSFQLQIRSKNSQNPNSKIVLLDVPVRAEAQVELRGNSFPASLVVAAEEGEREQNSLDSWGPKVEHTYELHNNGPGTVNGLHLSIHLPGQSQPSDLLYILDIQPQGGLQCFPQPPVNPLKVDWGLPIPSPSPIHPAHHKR
UniProt P08514, 891-1039 partner limits assumed: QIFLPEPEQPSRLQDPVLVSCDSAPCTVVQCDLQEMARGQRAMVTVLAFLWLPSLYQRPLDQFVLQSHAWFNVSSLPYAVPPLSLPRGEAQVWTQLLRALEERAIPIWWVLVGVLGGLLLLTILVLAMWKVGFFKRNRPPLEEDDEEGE

This assay deals with Purified GPIIb/IIIa receptor (Homo sapiens, UniProt P05106+P08514). The assay is described as follows: Fibrinogen receptor (GPIIb/IIIa) binding inhibition test (solid-phase, ELISA detection of bound fibrinogen). On the set-up: made in house. As to conditions: inhibition of fibrinogen (2 µg/ml) binding to solid phased purified GPIIb/IIIa, 4°C, 16 hours. The protocol: Purified GPIIb/IIIa was prepared by referring to the methods of Pytela et al (Science, 231 (1986) 1559) and a binding measurement system of solid phased GPIIb/IIIa was carried out by referring to the method of Kouns et al (Blood, 80 (1992) 2539).
Purified GPIIb/IIIa receptor was solidified on 96-well microtiter plates by reacting in a solution (pH 7.4) containing 20 mM Tris-hydrochloric acid, 150 mM sodium chloride, 1 mM calcium chloride, 1 mM magnesium chloride and 0.0005 % Triton X-100 at 4°C for 16 hours. The solid phase was then washed once with a solution (pH 7.4) containing 20 mM Tris-hydrochloric acid, 150 mM sodium chloride, 1 mM calcium chloride, 1 mM magnesium chloride and 0.05 % Tween 20 (Buffer B), and blocked by a solution (pH 7.4) containing 20 mM Tris-hydrochloric acid, 150 mM sodium chloride, 1 mM calcium chloride, 1 mM magnesium chloride and 25 % Block Ace in an amount of 150 µL/well at room temperature for 2 hours. […] The amount of the fibrinogen bound to the plates was measured by an enzyme-linked immunosorbent assay method using antifibrinogen primary antibody and peroxidase-labelled secondary antibody to calculate IC50 value. […]

In the case of `N=C(N)NCCC[C@H](NC(=O)CN)C(=O)NCC(=O)N[C@@H](CC(=O)O)C(=O)N[C@@H](CO)C(=O)O` [GRGDS, Gly-Arg-Gly-Asp-Ser], the IC50 (commonly the concentration that inhibits the measured activity by half) is 680 nM.
